## Binding of CDR-mutated scFvs to a peptide of the spike HR2 region

All variants were tested on one target, the spike HR2 peptide PDVDLGDISGINAS (SARS-CoV-2).

The variants keep the heavy chain, the linker and the frameworks of Ab-14 (scFv order VH, the linker GGGGSGGGGSGGGGS, VL).
VH: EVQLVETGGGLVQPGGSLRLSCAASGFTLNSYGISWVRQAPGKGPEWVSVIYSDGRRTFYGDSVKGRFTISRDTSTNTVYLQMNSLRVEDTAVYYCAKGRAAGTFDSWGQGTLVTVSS
VL: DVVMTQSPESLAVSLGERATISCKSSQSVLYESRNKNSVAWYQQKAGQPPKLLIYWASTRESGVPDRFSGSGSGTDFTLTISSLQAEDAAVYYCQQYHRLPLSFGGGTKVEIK

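Phage display of a naive human antibody library on the peptide gave the parent. Designed CDR sequences, proposed from the first random library and measured here. Group labels follow the data file (Ctrl: baseline library sampled from a position-specific scoring matrix, with some repeated check sequences; En: ensemble of fine-tuned language models; GP: Gaussian process model; HC: hill climbing; Gen: genetic algorithm; Gibbs: Gibbs sampling; a sequence that several methods proposed may carry one label only). The scFvs were displayed on barcoded MATa yeast, the peptide on MATalpha yeast. Binding brings cells together so that they mate, and sequencing counts the barcode pairs among the diploids. A regression on co-assayed BCL2-family reference pairs converts the normalised counts of each replicate to an apparent Kd. The assay was run in six technical replicates.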

The parent's light chain CDRs are KSSQSVLYESRNKNSVA, WASTRES, QQYHRLPLS; each variant's own CDRs replace them letter for letter.
Values are log10 of the apparent Kd in nM; lower means stronger binding.
A pair that was not seen in that replicate is written "n.d."; this usually means weak binding, but a binder can also be missed.
Of ten entries with the parent sequence, four were seen in most replicates (averages 0.34 to 2.37), three in one and three in none, so single entries are noisy.

| log10 Kd (nM) by replicate | signal with controls | CDR-L1 | CDR-L2 | CDR-L3 | group |
|---|---|---|---|---|---|
| 0.10 / -0.02 / 0.18 / -0.03 / -0.15 / 0.49 | 0/18 | NSSGPMMFESRNKNSVA | HASTREE | QQYERLPLA | En_HC |
| 1.25 / 0.93 / 0.80 / 0.95 / 1.17 / 1.52 | 0/18 | KYSQSVLYESRFFPSVA | TASTRES | QQYHRLPLS | Ctrl |
| n.d. / 2.12 / 1.58 / n.d. / 2.02 / n.d. | 1/18 (2.21) | KSEDGVDDEERNDNSVA | WASTRES | QQYHRLPLS | GP_Gibbs |
| 0.94 / 0.67 / 0.68 / 0.67 / 0.60 / 0.56 | 2/18 (2.57) | ALSQAMDMTSRNVNSVA | DLTTREN | QQYHRLPLS | En_HC |
| 1.32 / 1.39 / 1.09 / 0.90 / 1.62 / 1.20 | 0/18 | KSSQSVLGESRNKNSVA | KADTRES | QQYHRLPLC | Ctrl |
| 0.29 / 0.10 / -0.04 / 0.13 / -0.06 / -0.32 | 0/18 | KSLQMQEYESRNKNSVA | HASTRED | QQYHCLPLS | GP_HC |
| 0.78 / 0.82 / 1.13 / 1.09 / 0.68 / 0.74 | 1/18 (2.94) | KSSPSELYESRNKNSVA | NASTRES | QQYHRLPLS | GP_HC |
| 1.50 / 1.14 / 0.73 / 1.21 / 1.41 / 1.39 | 2/18 (2.48) | KISGYLNKESKATNNVA | EMVNRES | QQYDRLPLS | En_HC |
| 0.86 / 0.34 / 0.29 / 0.27 / 0.48 / 0.37 | 0/18 | TFDQMGEQKGMNTNSVA | AGNLVRI | QQYSRLPFS | En_Gibbs |
| 0.30 / -0.01 / 0.04 / -0.10 / 0.28 / 0.08 | 0/18 | KLAQGIYEPWRKSHNIA | EASHVCD | QQYERLPLE | En_Gibbs |
| -0.07 / 0.09 / 0.00 / -0.02 / -0.21 / -0.02 | 0/18 | KISQSVLRESRNVNSVA | EASTRES | QQYHCLPLT | Ctrl |
| 1.14 / 0.75 / 0.64 / 0.58 / 0.93 / 1.05 | 1/18 (3.24) | SISGFMKSLSAHINSVA | DMTNREE | QQYERLPLS | En_Gen |
| 1.21 / 0.77 / 0.97 / 1.00 / 1.13 / 1.07 | 2/18 (2.85) | KSSGSVLYESRNFNSMA | RASTRES | QQYHRLPLS | Ctrl |
| 0.13 / 0.21 / 0.17 / 0.22 / 0.03 / 0.14 | 0/18 | QLPNYRGDGYLQKNNVA | GGTERSH | QQYMRLPLF | En_Gibbs |
| 0.17 / -0.12 / 0.05 / -0.27 / -0.08 / 0.16 | 2/18 (2.61) | HLSQSTDLESVHKNSIA | DLMTREN | QQYHRLPLS | En_HC |
| n.d. / 1.98 / n.d. / 1.45 / n.d. / n.d. | 1/18 (1.96) | KSSQEVLYESRNKNSVA | WASTRES | QQYHRLPLS | Ctrl |
| 1.99 / 0.94 / 0.65 / 0.80 / 0.96 / 0.93 | 0/18 | KSSSSVLYESHNKNSVA | NASTRMS | QQYHRLPLS | GP_HC |
| 0.35 / -0.27 / 0.44 / -0.31 / -0.21 / 0.06 | 0/18 | TISQLMNMGQFAINSVA | QASIRNS | QQYDRLPLM | En_Gen |
| 0.11 / -0.19 / 0.08 / -0.28 / 0.08 / 0.12 | 0/18 | KFSGSDLYESRNSNSVA | HGSTRES | QDYHRLPLS | GP_Gibbs |
| 1.00 / 0.57 / 0.05 / -0.04 / 1.47 / 1.01 | 0/18 | MLSQMWALGMKVSNSVA | QASMRFN | QQYERLPLI | En_Gen |
| 0.16 / 0.13 / 0.15 / -0.06 / -0.08 / 0.28 | 1/18 (3.63) | KAQQSVGYGERMSNSVA | EASTRES | QQYHRLPLS | GP_Gibbs |
| 0.89 / 1.11 / 0.70 / 1.31 / 1.07 / 0.92 | 1/18 (2.21) | KVFISELGESRNKMSVA | DASTRES | QQYHRLPLS | GP_Gibbs |
| -0.17 / -0.33 / -0.16 / -0.47 / -0.39 / -0.01 | 2/18 (2.12) | KLQQSVLYESRNKNSVA | NASTRED | QQYHQLPLS | GP_Gibbs |
| 1.09 / 1.28 / 1.07 / 1.57 / 0.89 / 1.35 | 3/18 (2.97) | RLSVNLDAGNISTNAIA | EGKSVEQ | QQYMRLPLG | En_Gibbs |
| 0.36 / 0.88 / 0.68 / 0.05 / 0.84 / 0.95 | 0/18 | QIMEEQSMRTEGNWNIA | QAEQKVH | QQYNRLPLA | En_Gibbs |
| n.d. / n.d. / 0.77 / n.d. / n.d. / n.d. | 0/18 | RIQMTDLEGRMAWSNIA | DNEESYR | QQYVRLPLY | En_Gibbs |
| 0.40 / 0.30 / 0.46 / 0.47 / 0.77 / 0.37 | 1/18 (2.80) | KLSQEMLYESRMINSVA | NASQRES | QQYHRLPLS | GP_Gibbs |
| n.d. / n.d. / n.d. / n.d. / n.d. / n.d. | 0/18 | IVSQLMIWGMHVKNSIA | EAQTRLN | QQYDRLPLI | En_Gen |
| 0.95 / 0.75 / 1.14 / 0.59 / 0.75 / 0.86 | 0/18 | KFSQSKLYESRWKNSVA | GASQRES | QQYHRLPLS | GP_HC |
| -0.14 / -0.30 / -0.35 / -0.43 / -0.24 / -0.11 | 1/18 (2.54) | KLSMSWMQEERNKNSVA | QASTREQ | QQYHRLPLS | GP_Gibbs |
| 1.04 / 0.61 / 0.45 / 0.31 / 0.40 / 0.50 | 1/18 (1.87) | KLSMSEDYESRMCNSVA | EASQREE | QQYHRLPLS | GP_Gibbs |

In the paper, a design with two or fewer of six values counts as a poor binder.
Values of this round are not directly comparable with the first-round values of the same sequences.
Nonspecific signal, from three strains lacking the peptide, appeared in 4% of pairings of all light chain designs, centred on 2.64 (5% of these signals below 1.59); values are not corrected for it. The control count says in how many pairings with the empty strains this scFv gave a signal, with their mean in brackets.

Source: Li et al. 2023 (doi:10.1038/s41467-023-39022-2), MIT Lincoln Laboratory and A-Alpha Bio; data file from the FLAb repository.